Assays:
[1] = system: ΔPH-Akt1; experiment: KinEASE activity assay, ΔPH-Akt1; type: biochemical, Human; details: n.i. = no inhibition up to 200 µM
[2] = target: Human Akt1 (UniProt entry P31749) (Homo sapiens, UniProt P31749, C296S/C310S/C344S/E49C); experiment: iFLiK assay (fluorophore-labeled Akt1 binding assay)

Amino acid sequences for entries named in this document (tags omitted).
UniProt P31749, whole entry E49C/C296S/C310S/C344S: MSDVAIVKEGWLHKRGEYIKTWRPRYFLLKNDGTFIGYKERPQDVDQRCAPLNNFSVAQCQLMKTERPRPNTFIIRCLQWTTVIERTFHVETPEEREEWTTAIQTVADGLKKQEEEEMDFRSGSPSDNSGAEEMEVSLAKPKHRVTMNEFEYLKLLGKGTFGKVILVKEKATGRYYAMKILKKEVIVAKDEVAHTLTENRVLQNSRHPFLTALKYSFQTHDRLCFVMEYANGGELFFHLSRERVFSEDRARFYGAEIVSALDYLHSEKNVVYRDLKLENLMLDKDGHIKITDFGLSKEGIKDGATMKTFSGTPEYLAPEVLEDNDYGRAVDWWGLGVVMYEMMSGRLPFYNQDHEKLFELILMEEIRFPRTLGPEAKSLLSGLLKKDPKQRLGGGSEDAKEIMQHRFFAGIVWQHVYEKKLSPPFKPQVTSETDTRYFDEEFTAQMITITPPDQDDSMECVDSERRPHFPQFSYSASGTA

Row | IC50 ΔPH-Akt1 [1] | SMILES | effect on PyMPO fluorescence (emission spectrum) [2]
1 | n.i. | Cc1ccc(-n2cc(-c3ccccc3)c3c(NCc4ccccc4)ncnc32)cc1 | –
2 | n.i. | Cc1ccc(-n2cc(-c3ccccc3)c3c(NCc4cccs4)ncnc32)cc1 | –
3 | n.i. | c1ccc(-c2cn(-c3ccccc3)c3ncnc(NCc4cccs4)c23)cc1 | –
4 | – | O=c1[nH]ccc2nc(-c3ccc(CN4CCC(n5c(=O)[nH]c6cc(Cl)ccc65)CC4)cc3)c(-c3ccccc3)cc12 | the same as with MK-2206
5 | n.i. | Fc1ccc(-n2cc(-c3ccccc3)c3c(NCc4ccccn4)ncnc32)cc1 | –
6 | n.i. | c1ccc(-c2cn(-c3ccccc3)c3ncnc(NCc4cccnc4)c23)cc1 | –
7 | n.i. | Cc1ccc(-n2cc(-c3ccccc3)c3c(NCc4cccs4)ncnc32)cc1Cl | –
8 | n.i. | Cc1cccc(-n2cc(-c3ccccc3)c3c(NCc4cccs4)ncnc32)c1 | –

From EP2810648A1, “Targeting domain-domain interaction for the identification of kinase modulators” (Rauh, Daniel, priority 2013, dated 2014)
